Experimental findings from article PMC7244308 (Science Advances, 2020) are described below.

Holding throughout (assay type): binding
For one assay, the target named is SLO (Streptococcus pyogenes serotype M1, UniProt P0C0I3). In words: biochemical.
The target of a further assay is human Mac-1 (Homo sapiens, UniProt P11215).
In the next assay the target is Mac-1 + PNGase (Homo sapiens, UniProt P11215).

For orientation: Kd means the free concentration of one partner at which half of the binding sites on the other are occupied at equilibrium, for simple one-to-one binding. `CC(C)CCC[C@@H](C)[C@H]1CC[C@H]2[C@@H]3CC=C4C[C@@H](O)CC[C@]4(C)[C@H]3CC[C@]12C` [Cholesterol]: the Kd on SLO was 0.0523 µM.

“Ply: pneumolysin, CDC toxin from Streptococcus pneumoniae, recombinant His-tagged”: the dissociation constant Kd in the assay with human Mac-1 was 0.00662 µM; with Mac-1 + PNGase it was 0.0278 µM.
